Source: paper PMC6272893, “NO-Releasing Enmein-Type Diterpenoid Derivatives with Selective Antiproliferative Activity and Effects on Apoptosis-Related Proteins” (Molecules, 2016)

System: L-02 normal liver cells
Assay: MTT antiproliferative assay, L-02
Type: cell-based
Details: selectivity between tumor and normal liver cells
Description: [The source words this procedure for another cell line and reports this cell line under the same test.] Cytotoxicity assay in vitro was employed by the MTT assay following the methodology described previously, which was performed in flat-bottomed 96-well plates. In short, exponentially growing MGC-803 cells at the log phase were added to each well at a density of 5 × 10^3 per well, then treated with serial dilutions of the compounds in three replicates at various concentrations (0.039–40 µg/mL). After 72 h, 20 µL of MTT solution (5 mg/mL) per well was added to each cultured medium. Then, DMSO was added to each well (150 µL/well). After 10 min at room temperature, the absorbance (OD) was read on a microplate reader at the wavelength of 490 nm (BIO-RAD Instruments Inc. 550, Hercules, CA, USA). In these experiments, taxol was used as the positive reference with the concentration of 10 µg/mL.

C=C1C(=O)C23C(=O)OC4CCC(C)(C)C5C(=O)OCC45C2CCC1C3O (stereo not shown) [Compound 9]
SI (selectivity index): ~1.6
